Source: publication PMC9873282, “Design, synthesis and evaluation of quinoline-O-carbamate derivatives as multifunctional agents for the treatment of Alzheimer’s disease” (Journal of Enzyme Inhibition and Medicinal Chemistry, 2023)

Chains of the proteins cited; added tags and fusions are not shown. Residues count along the entry.
UniProt P06276, 29-602: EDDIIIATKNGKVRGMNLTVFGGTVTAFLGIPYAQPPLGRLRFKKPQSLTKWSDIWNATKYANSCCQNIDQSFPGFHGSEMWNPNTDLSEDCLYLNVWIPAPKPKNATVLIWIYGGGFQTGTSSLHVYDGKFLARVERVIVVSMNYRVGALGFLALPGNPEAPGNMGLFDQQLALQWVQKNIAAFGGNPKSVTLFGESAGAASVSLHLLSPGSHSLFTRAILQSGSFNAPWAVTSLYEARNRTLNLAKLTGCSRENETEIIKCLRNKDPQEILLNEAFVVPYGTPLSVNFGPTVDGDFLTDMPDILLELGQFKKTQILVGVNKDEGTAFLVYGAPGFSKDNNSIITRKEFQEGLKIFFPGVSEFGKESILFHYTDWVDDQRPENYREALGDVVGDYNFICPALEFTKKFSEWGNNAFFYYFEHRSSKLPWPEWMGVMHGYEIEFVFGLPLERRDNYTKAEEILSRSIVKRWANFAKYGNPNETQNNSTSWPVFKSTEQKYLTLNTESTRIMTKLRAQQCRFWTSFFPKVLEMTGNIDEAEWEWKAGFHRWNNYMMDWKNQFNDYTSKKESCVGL

Molecular target: T1, hBuChE (Homo sapiens, UniProt P06276)
T1 construct: hBuChE, human serum BuChE; purchased Sigma Aldrich; host or cells: human serum (natural source)
Test: biochemical
Details: IC50 ± SD hBuChE
Description: Acetylcholinesterase (eeAChE, from the electric eel; hAChE, from human erythrocytes AChE), butyrylcholinesterase (eqBuChE, from equine serum; hBuChE, human serum BuChE), 5,5′-dithiobis-2-nitrobenzoic acid (Ellman’s reagent, DTNB), acetylthiocholine chloride (ATC), and butyrylthiocholine chloride (BTC) were purchased form Sigma Aldrich. The determination of AChE and BuChE inhibitory potency of the synthesised compounds were evaluated by Ellman assay, the detailed procedure referred to our previous work[26]^,[27].

`CCN(C)C(=O)Oc1cccc([C@H](C)N(C)C)c1` [Rivastigmine, reference compound] was tested, and the IC50 was 2.8 ± 0.52 µM.
